The record followed here is patent publication US9409891B2, “Solid forms of an antiviral compound” (Gilead Sciences, Inc., priority 2012, dated 2016).

A short description of data set [1]: Stable form competition study in ACN. It is filed as physicochemical. The procedure: To further verify the stability of Form II, competitive crystallization was conducted by adding Forms I through V into a high concentration solution of amorphous Compound I in ACN. […] The mother liquor obtained, which was saturated in terms of Form II, was used in another test in which other forms (Forms I, III, IV and V) were added.

A short description of data set [2]: Follow-up stable form screening (Form II stirred in solvents at about 22° C.). It is filed as physicochemical. The conditions noted are these: EtOH/water (52/48), Form II start, value for Form V. The procedure:
In the follow-up stable form screening experiments, the starting materials were Form II. The solids were stirring in the solvents list below at about 22° C. in 2 ml vials.

With “5-(3,3-dimethylbutyn-1-yl)-3-[(cis-4-hydroxy-4-{[(3S)-tetrahydrofuran-3-yloxy]methyl}cyclohexyl){[(1R)-4-methylcyclohex-3-en-1-yl]carbonyl}amino]thiophene-2-carboxylic acid hydrate and/or solvate [Form III]”, the “Behaviour of solids added to mother liquor saturated in Form II” value in data set [1] was “dissolved quickly”.

In turn, “5-(3,3-dimethylbutyn-1-yl)-3-[(cis-4-hydroxy-4-{[(3S)-tetrahydrofuran-3-yloxy]methyl}cyclohexyl){[(1R)-4-methylcyclohex-3-en-1-yl]carbonyl}amino]thiophene-2-carboxylic acid solvate [Form V]” showed a Solubility in data set [2] of 8000 µg/mL. Also, in data set [1], the “Behaviour of solids added to mother liquor saturated in Form II” value was “dissolved quickly”.

In general, Solubility refers to the dissolved amount per volume that the medium holds. A high value points to a readily soluble substance.
